# In publication PMC8618441, “From Natural Xanthones to Synthetic C-1 Aminated 3,4-Dioxygenated Xanthones as Optimized Antifouling Agents” (Marine Drugs, 2021):
# Test system: Roseobacter litoralis CECT 5395
# Assay: Biofilm-forming marine bacteria growth bioassay
# Type: cell-based
# Conditions: R. litoralis, concentrations between 2 and 32 µM (Figure S1)
# Text: Five strains of marine biofilm-forming bacteria from the Spanish Type Culture Collection (CECT): Cobetia marina CECT 4278, Vibrio harveyi CECT 525, Halomonas aquamarina CECT 5000, Pseudoalteromonas atlantica CECT 570, and Roseobacter litoralis CECT 5395 were selected for antibacterial screening of the most promising anti-settlement compounds Phylogenetically different bacterial strains were selected to have a broader representation of different susceptibilities regarding antifouling promising compounds, and at the same time, were represented in biofouling films characterized in the Portuguese coast. The experimental procedure was performed as previously reported by Almeida et al.. Briefly, bacteria were inoculated and incubated for 24 h at 26 °C in marine broth (Difco) at an initial density of 0.1 (OD600) in 96 well flat-bottom microtiter plates and exposed to the test compounds at 15 μM. Bacterial growth inhibition in the presence of the compounds was determined in quadruplicate at 600 nm using a microplate reader (Biotek Synergy HT, Winooski, VT, USA). Negative and positive controls used were a solution of marine broth with 0.1% DMSO, and a stabilized solution of marine broth with penicillin-streptomycin-neomycin, respectively. […]
structure (smiles),measurement,value
"COc1cc(C(Br)Br)c2c(=O)c3ccccc3oc2c1OC [Compound 6, 1-(dibromomethyl)-3,4-dimethoxy-9H-xanthen-9-one]",antibacterial bioactivity in concentration–response study,not confirmed
